UUG fidelity: yeast start codon fidelity modulation | S. cerevisiae UUG-firefly luciferase reporter, luminescence/redox ratio | activity score, % at 18.7 µM | hit rate 0.13% among 350,000 | AID 602363;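 active means replicate mean at a twofold rise or more, about +100% in these data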;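 further: firefly luciferase made from a UUG start codon reports start codon fidelity; reporter light over untreated wells divided by growth signal over untreated wells; some hits fall short of that in this replicate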
MC4R antag cAMP: antagonists of human melanocortin 4 receptor (MC4R) | AID 540295 | MC4R-expressing cells, MTII-stimulated cAMP, LANCE TR-FRET | P32245 | 360,000 compounds, 0.48% hits | inhibition, % at 6.5 µM;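 active means inhibition above its plate's cutoff, the mean of tested wells on that plate plus 3 SD, cut at about 29% in these data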;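 further: 0% = Melanotan II alone and 100% = Melanotan II plus saturating MCL0020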
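System – human MC4R-expressing U2OS cells · Also added – Melanotan II · Dosing – one concentration, 6.5 µM nominal · Timing – 30-min compound, 1-h challenge, 1-h detection, room temperature · Measured by – Eu-cAMP/anti-cAMP TR-FRET, emission 671 nm · Replicates – singlicate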
MC4R ag barr: human MC4R agonism via beta-arrestin; U2OS MC4R beta-arrestin complementation, luminescence; percent of melanotan II response, DMSO zero; activation, % at 8.9 µM; 360,000 compounds, 0.98% hits;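 active means activation above a per-plate cutoff, the mean activation of sample wells on that plate plus 3 SD, cut at about 8% in these data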
ASAP1 GAP inh: inhibitors of human ASAP1 ArfGAP activity; Q9ULH1; ASAP1-stimulated ARF1 GTP hydrolysis, GDP FP detection; inhibition, % at 16.5 µM; 360,000 compounds, 0.19% hits; AID 624377; in the data active means inhibition above about 25%;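 further: 0% = vehicle with enzyme and substrate and 100% = no enzyme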
ARFGAP1 inhibitor: rat ARFGAP1 inhibition; Q62848; Arfgap1-stimulated ARF1 GTP hydrolysis, GDP FP detection; inhibition, % at 16.5 µM; 360,000 compounds, 0.26% hits;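 active means inhibition above a per-plate limit, mean inhibition of low control wells plus 3 SD, cut at about 25% in these data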;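 further: 0% = DMSO wells with enzyme and 100% = wells lacking Arfgap1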
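Material: rat Arfgap1 catalytic domain, aa 1-136; also added: human ARF1(Δ1-17)-GTP substrate; compound dosing: one concentration, 16.5 µM, DMSO 1.26%; incubation: GTP hydrolysis reaction 2 h at 25 °C; measured by: Tracer-displacement fluorescence polarization with EDTA stop, 620/688 nm; evaluation: % inhibition from polarization; repeats: one replicate per compound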
CendR NRP1 mod: NRP-1/CendR interaction modulation | O14786 | FAM-RPARPAR peptide binding to NRP-1, fluorescence polarization | inhibition, % at 25 µM | 360,000 compounds, 0.85% hits;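 active means inhibition or corrected inhibition above about 18%, plus a signal ratio from 0.5 to 1.5, limit read from the data, passing the limit was not always enough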
U2OS cAMP counter: nonselective cAMP signaling inhibitor, MC4R antagonist counter-screen | shares compounds with MC4R antag cAMP | parental U2OS, forskolin cAMP, LANCE TR-FRET | inhibition, % at 6.5 µM | 1,600 compounds, 26% hits | AID 602193;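 active means mean inhibition over triplicates above the low-control well mean plus 3 SD, set per campaign, cut at about 13% in these data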;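 further: signal is single emission at 671 nm which falls as cellular cAMP rises; 0% = forskolin-stimulated wells and 100% = buffer without forskolin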
MC4R antag conf: human MC4R cAMP antagonism confirmation. shares compounds with MC4R antag cAMP. MC4R-expressing cells, MTII-stimulated cAMP, TR-FRET. inhibition, % at 6.5 µM. 1,600 compounds, 27% hits. AID 602195; in the data active means inhibition above about 29%;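 further: 0% = agonist stimulated wells alone and 100% = agonist stimulated wells plus saturating reference antagonist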
MC4R barr conf: human MC4R beta-arrestin agonism confirmation; shares compounds with MC4R ag barr; 2,400 compounds, 31% hits; U2OS MC4R beta-arrestin recruitment, luminescence; scaled DMSO 0%, Melanotan II 100%; activation, % at 8.9 µM;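 active means mean activation across replicates above the hit cutoff set in the earlier primary screen, cut at about 8% in these data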
MOR-DOR barr ag: counter-screen for MC4R agonists: agonists of mu-delta opioid heterodimer; shares compounds with MC4R ag barr; U2OS PathHunter beta-arrestin, beta-gal luminescence; percent of deltorphin B response, DMSO zero; activation, % at 9.2 µM; 2,400 compounds, 5.8% hits; AID 602194;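 active means mean activation across replicates exceeds the hit threshold derived in the earlier primary screen, cut at about 18% in these data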;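 further: 100% = deltorphin B at 0.9 µM final and 0% = DMSO alone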
ASAP1 inh confirm: ASAP1 inhibition confirmed; shares compounds with ASAP1 GAP inh; ASAP1-stimulated Arf1 GTPase, GDP fluorescence polarization; inhibition, % at 16.5 µM; 620 compounds, 37% hits; AID 624431;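 active means mean inhibition over triplicates exceeds the hit threshold derived for the earlier primary screening run, cut at about 25% in these data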
ARFGAP1 confirm: confirmation of rat ARFGAP1 inhibitors. shares compounds with ARFGAP1 inhibitor. ARFGAP1-stimulated ARF1 GTP hydrolysis, GDP tracer FP. inhibition, % at 16.5 µM. 890 compounds, 30% hits;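 active means average inhibition over triplicates above the hit cutoff set in the earlier primary screen, cut at about 25% in these data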;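 further: 0% = Arfgap1 plus ARF1-GTP with DMSO and 100% = wells lacking Arfgap1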
Starred values were filed as active, the others as inactive; / = no result. The list is not random: actives were taken first. Their share in the collection is about 2.3%.

SMILES | UUG fidelity | MC4R antag cAMP | MC4R ag barr | ASAP1 GAP inh | ARFGAP1 inhibitor | CendR NRP1 mod | MC4R barr conf | MOR-DOR barr ag | others
Cc1nnc(-c2cccc(Br)c2)c2cn(-c3ccccc3)nc12 | -11.0 | 20.6 | -1.7 | 12.1 | -1.2 | 129.8 | / | /
Cc1nnc(-c2cccc(Br)c2)c2cn(-c3cccc(Br)c3)nc12 | -21.0 | 32.7* | 13.1* | 27.5* | 13.6 | 115.3 | 5.6 | 5.3 | U2OS cAMP counter=5.3;MC4R antag conf=29.4*;ASAP1 inh confirm=20.4
O=C1C(Cl)=C(NCCc2ccccc2)C(=O)c2ccccc21 | -20.6 | 42.4* | -3.9 | 29.6* | 18.5 | -2.1 | / | / | U2OS cAMP counter=9.5;MC4R antag conf=-18.3;ASAP1 inh confirm=6.1
Cc1ccc2nc(N3C(=O)C(O)=C(C(=O)c4ccc(C)o4)C3c3cccc(O)c3)sc2c1 (stereo unspecified) | / | 31.4* | 0.3 | 18.9 | 34.3* | -50.5 | / | / | U2OS cAMP counter=1.8;MC4R antag conf=13.3;ARFGAP1 confirm=51.5*
C[C@@H]1CN([C@H](C)CO)S(=O)(=O)c2ccc(/C=C/c3ccccc3)cc2O[C@@H]1CN(C)C(=O)c1ccc2c(c1)OCO2 | -17.2 | / | / | / | / | / | / | /
CCOC(=O)c1c(NC(=O)COC)sc(C)c1C | -7.5 | 3.1 | -0.2 | 6.9 | -1.7 | 4.3 | / | /
CCOC(=O)c1c(NC(=O)C[n+]2ccc(N(C)C)cc2)sc(C)c1C | -10.3 | 29.6* | -1.4 | 13.7 | 25.1* | 6.7 | / | / | U2OS cAMP counter=0.9;MC4R antag conf=-2.1;ARFGAP1 confirm=6.6
Cc1ccc(NC(=O)c2nc[nH]c2C(=O)Nc2ccccc2F)cc1 | -8.0 | -0.2 | 16.2* | 4.1 | 8.5 | 6.4 | -1.0 | 2.0
O=C(Nc1ccccc1)c1nc[nH]c1C(=O)Nc1ccccc1F | -10.5 | 12.2 | 2.8 | 2.2 | -8.5 | -4.7 | / | /
Cc1ccc(C(=O)c2c(C)oc3c2C(=O)C(=O)c2ccccc2-3)cc1 | / | -6.5 | 1.9 | / | / | 9.3 | / | /
Cc1ccc(C(=O)c2coc3c2C(=O)C(=O)c2ccccc2-3)cc1 | -9.9 | -7.0 | 16.5* | 3.9 | -1.9 | -0.9 | 16.6* | 9.3
Cc1nnnn1/C(=C\c1ccccc1)C(=O)OCC(=O)Nc1ccc(Cl)cc1F | -9.3 | -26.3 | 37.3* | -10.1 | 0.6 | 8.7 | 23.8* | 4.4
Cc1nnnn1/C(=C\c1ccccc1)C(=O)OCC(=O)Nc1cccc(S(=O)(=O)N(C)C)c1 | 3.8 | 12.1 | -1.7 | 12.9 | -8.4 | 5.1 | / | /
COc1ccc(S(=O)(=O)N(C)C[C@@H]2Oc3c(NC(=O)C4CC4)cccc3C(=O)N([C@H](C)CO)C[C@H]2C)cc1 | 12.0 | / | / | / | / | / | / | /
O=C(NC(=S)Nc1ccccc1)c1cncc(C#Cc2ccccc2)c1 | / | -0.5 | 13.9* | 3.4 | 9.5 | 4.9 | 0.4 | 1.6
O=C(O)c1cncc(C#Cc2ccccc2)c1 | / | 6.3 | -2.2 | 5.2 | -7.0 | 10.6 | / | /
Nc1ccc(O)cc1C(=O)OCC(=O)c1ccc(C2CCCCC2)cc1 | / | 6.6 | 21.3* | 1.6 | 2.7 | -4.1 | 11.9* | 13.8
COc1ccc(C(=O)OCC(=O)c2ccc(C3CCCCC3)cc2)cc1 | -27.7 | -2.0 | -1.4 | -1.4 | 2.7 | 6.4 | / | /

Sorted by SMILES length (highest first): part of the list above.
SMILES | UUG fidelity | MC4R antag cAMP | MC4R ag barr | ASAP1 GAP inh | ARFGAP1 inhibitor | CendR NRP1 mod | MC4R barr conf | MOR-DOR barr ag | others
COc1ccc(S(=O)(=O)N(C)C[C@@H]2Oc3c(NC(=O)C4CC4)cccc3C(=O)N([C@H](C)CO)C[C@H]2C)cc1 | 12.0 | / | / | / | / | / | / | /
Cc1ccc(C(=O)c2c(C)oc3c2C(=O)C(=O)c2ccccc2-3)cc1 | / | -6.5 | 1.9 | / | / | 9.3 | / | /
Cc1nnc(-c2cccc(Br)c2)c2cn(-c3ccccc3)nc12 | -11.0 | 20.6 | -1.7 | 12.1 | -1.2 | 129.8 | / | /

High-throughput results (PubChem BioAssay)
